# MITF TRPM1 HTS – activators of MITF-driven TRPM1 promoter reporter, primary screen, cell-based, SK-MEL-5, luciferase, single point. SK-MEL-5 TRPM1-promoter luciferase, 24 h; % of positive control, neutral wells = 0. 0.75% of 300,000 active. activation, % at 12.5 µM;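 active = mean activation of at least 80% with every replicate also reaching 80%; inconclusive = mean reaches 80% but some replicate falls short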;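 also: 0% = neutral control wells and 100% = parthenolide positive control wells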
# UUG fidelity – modulators of start codon recognition fidelity in yeast; AID 602363; activity score, % at 18.7 µM; S. cerevisiae UUG-firefly luciferase reporter, luminescence/redox ratio; 0.13% of 350,000 active;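 active = replicate mean at a twofold rise or more, about +100% in these data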;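 note: firefly luciferase made from a UUG start codon reports start codon fidelity; reporter light over untreated wells divided by growth signal over untreated wells; some hits fall short of that in this replicate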
# MITF TRPM1 inh – inhibitors of MITF-dependent TRPM1 promoter reporter, primary screen, cell-based, SK-MEL-5, single point, luciferase; inhibition, % at 12.5 µM; 0.83% of 330,000 active; SK-MEL-5 TRPM1 promoter luciferase, 24 h;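 active = mean inhibition across replicates of 60% or more, whatever share of single replicates reaches that level; inconclusive = some that reach 60%, reason not given; inactive = mean inhibition across replicates below 60%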
# PGC1a acetyl inh – inhibitors of PGC1a acetylation signal, primary screen, cell-based, U2OS, AlphaScreen, inhibitor mode | 0.17% of 350,000 active | AID 651687, 2012 | AlphaScreen anti-acetyl-lysine; with virally co-expressed GCN5 acetyltransferase | inhibition, % at 15.6 µM;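 active = every replicate shows inhibition of at least 40%; inconclusive = mean inhibition at least 40% but some replicate below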;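 also: 0% = neutral control wells and 100% = positive control wells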
# Wnt act – Wnt/beta-catenin pathway activators, primary screen, cell-based, plate reader, single point; 1.2% of 300,000 active; activation, % at 9.35 µM; AID 743398, 2014; Wnt/beta-catenin reporter cell assay, activator; in the data active = activation above about 30%, passing the limit was not always enough; inconclusive = no clear call, values can overlap the other calls;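 also: 0% = neutral control wells and 100% = positive control wells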
# miR-122 sensor – miR-122 Renilla sensor signal increase in Huh7, primary screen, miR-122 inhibitor project, cell-based, single point, plate reader; Huh7 miR-122 Renilla luciferase sensor, 48 h; neutral wells = 0, positive control = 100; 0.3% of 340,000 active; activation (reporter increase), % at 12.5 µM;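 active = mean replicate activation score at least 90 and every replicate individually at or above 90; inconclusive = only one of the two criteria met; inactive = neither criterion met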;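 also: higher luciferase means less miR-122 activity so hits act as miR-122 inhibitors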
# * hit, by the source's call; ? = inconclusive; . = no result; [ ] = remark or other dose. Only some compounds are listed: those with a hit (about 2.1% of all), similar ones and a draw of the others.
# Assay codes – A = MITF TRPM1 HTS; B = UUG fidelity; C = MITF TRPM1 inh; D = PGC1a acetyl inh; E = Wnt act; F = miR-122 sensor
O=C(Nc1ccc(S(=O)(=O)NC2CCCCC2)cc1)c1ccc(Br)o1
  A = 10; B = -3; C = -10; D = -1; E = 0; F = 128*
O=C(Nc1ccc2c(c1)OCCO2)c1ccc(Br)o1
  A = 48; B = -19; C = -46; D = 1; E = 55*; F = 4
O=C(Nc1ccc(S(=O)(=O)NC2CCCCC2)cc1)c1ccco1
  A = -3; B = -28; C = 5; D = 1; E = -2; F = 69
Cc1noc(C)c1NC(=O)Nc1ccc2c(c1)C(=O)N([C@H](C)CO)C[C@H](C)[C@@H](CN(C)C(=O)C1CCCCC1)OCCCC[C@H](C)O2
  A = .; B = 4; C = .; D = -13; E = .; F = -1[16.7 µM]
COc1cccc(-c2cn(CC[C@H]3CC[C@@H](NC(=O)CC4CC4)[C@H](CO)O3)nn2)c1
  A = .; B = -3; C = .; D = -14; E = .; F = .
CN(C)CCCn1c2c3ccccc3ccc2c2oc(=O)c3ccccc3c21
  A = -80; B = .; C = 80*; D = -10; E = -4; F = -15
CCOc1ccc(NS(=O)(=O)c2cc(NC(=O)CCC(=O)c3cccs3)ccc2Cl)cc1
  A = 10; B = .; C = -7; D = .; E = -4; F = .
COc1ccccc1NS(=O)(=O)c1cc(NC(=O)CCC(=O)c2cccs2)ccc1Cl
  A = 0; B = -9; C = 0; D = .; E = 0; F = 108*
COc1ccccc1NS(=O)(=O)c1cc(N/C(=N/S(=O)(=O)c2ccccc2)c2ccc(F)cc2)ccc1Cl
  A = .; B = -7; C = .; D = -14; E = -2; F = 117*
COc1ccc(NC(=O)CCC(=O)c2cccs2)cc1S(=O)(=O)Nc1ccc(Cl)cc1
  A = -2; B = .; C = 5; D = .; E = .; F = 322*
C[C@H](CO)N1C[C@H](C)[C@@H](CN(C)C)Oc2ccc(NC(=O)CCCCCC(=O)Nc3ccccc3N)cc2C1=O
  A = .; B = -7; C = .; D = 1; E = .; F = 5[16.7 µM]
Cc1ccc2nc(=O)c(NNc3ccccc3)cnc2c1
  A = 72; B = .; C = -62; D = .; E = ?; F = .
Cc1nc2ccccc2nc(=O)c1NNc1ccccc1
  A = 102*; B = .; C = -85; D = .; E = 25; F = .
Cc1noc(C)c1NC(=O)Nc1cccc2c1O[C@@H](CN(C)C(=O)NC(C)C)[C@H](C)CN([C@H](C)CO)C2=O
  A = .; B = -10; C = .; D = 3; E = .; F = 1[16.7 µM]
CSCCC1C(C#N)=C(N)Oc2n[nH]c(-c3cccs3)c21 (stereo not given)
  A = -1; B = -18; C = -3; D = 16; E = 10; F = -3

# Single records, from the list above.
# `CN(C)CCCn1c2c3ccccc3ccc2c2oc(=O)c3ccccc3c21` reads MITF TRPM1 HTS = -80; UUG fidelity = .; MITF TRPM1 inh = 80*; PGC1a acetyl inh = -10; Wnt act = -4; miR-122 sensor = -15
# `O=C(Nc1ccc(S(=O)(=O)NC2CCCCC2)cc1)c1ccco1` reads MITF TRPM1 HTS = -3; UUG fidelity = -28; MITF TRPM1 inh = 5; PGC1a acetyl inh = 1; Wnt act = -2; miR-122 sensor = 69

# More records.
# Assay codes – A = MITF TRPM1 HTS; B = UUG fidelity; C = MITF TRPM1 inh; D = PGC1a acetyl inh; E = Wnt act; F = miR-122 sensor
CC(C)CC1C(C#N)=C(N)Oc2n[nH]c(-c3cccs3)c21 (stereo not given)
  A = .; B = -14; C = 6; D = .; E = 37*; F = -4
Cc1noc(C)c1S(=O)(=O)Nc1ccc2c(c1)C(=O)N([C@@H](C)CO)C[C@H](C)[C@H](CN(C)Cc1ccccc1)O2
  A = .; B = 3; C = .; D = .; E = .; F = -6[16.7 µM]
O=C(COC(=O)CCN1C(=O)/C(=C\C=C\c2ccccc2)SC1=S)Nc1cc(F)ccc1F
  A = -63; B = .; C = 63*; D = 4; E = -1; F = .
O=C(COc1ccc(S(=O)(=O)NC2CCCCC2)cc1)Nc1ccc2c(c1)OCCO2
  A = -14; B = 3; C = 15; D = .; E = 0; F = 101*
CCOc1ncccc1C(=O)OCC(=O)Nc1cccc(C(C)=O)c1
  A = -16; B = -4; C = 14; D = -3; E = .; F = -9
CC(=O)c1cccc(NC(=O)COC(=O)c2ccccc2C)c1
  A = 97*; B = -6; C = -92; D = -3; E = 17; F = -1
Cc1ccccc1OCC(=O)Nc1ccc2c(c1)OCCO2
  A = 125*; B = .; C = -126; D = .; E = 38*; F = .
CC(C)CNS(=O)(=O)c1ccc(OCC(=O)Nc2ccc3c(c2)OCCO3)cc1
  A = -2; B = .; C = 3; D = .; E = -2; F = .
Cc1ccccc1OCC(=O)Nc1cccc(C(=O)O)c1
  A = -92; B = .; C = 92*; D = .; E = -5; F = .
CC(=O)Nc1ccc(NC(=O)COc2ccc(Br)cc2C)cc1
  A = -2; B = -16; C = -1; D = 29; E = 1; F = -6
Cc1cccc(NC(=O)COc2ccc(Br)cc2/C=N/O)c1
  A = 122*; B = .; C = -115; D = .; E = 15; F = .
NC(=O)c1ccccc1OCC(=O)Nc1ccc2c(c1)OCCO2
  A = 96*; B = -14; C = -93; D = .; E = 22; F = 0
Cc1cc(Cl)c(S(=O)(=O)Nc2ccon2)cc1OCC(=O)NC1CCCCC1
  A = .; B = -5; C = 8; D = .; E = .; F = -11
Cc1cc(Cl)c(S(=O)(=O)Nc2ccc3c(c2)OCCO3)cc1OCC(=O)NC1CCCCC1
  A = 5; B = -16; C = 2; D = .; E = -11; F = 157*
COc1ccccc1OCC(=O)Nc1ccc2c(c1)OCCO2
  A = ?; B = .; C = -81; D = -2; E = 4; F = 0
C[C@@H]1CCCCO[C@H](CN(C)C(=O)Nc2ccccc2)[C@@H](C)CN([C@@H](C)CO)C(=O)c2cc(NS(=O)(=O)c3cn(C)cn3)ccc2O1
  A = .; B = -4; C = .; D = 6; E = .; F = 0[16.7 µM]
C=CCNc1nc(-c2ccccn2)nnc1-c1ccccc1
  A = -78; B = -30; C = 78*; D = -44; E = -4; F = 5
C[C@@H]1CN([C@H](C)CO)C(=O)Cc2cc(NC(=O)Nc3ccc(C(F)(F)F)cc3)ccc2O[C@@H]1CN(C)C(=O)Nc1ccc2c(c1)OCO2
  A = .; B = .; C = .; D = 16; E = .; F = .
CO[C@H]1CC[C@H]2CCOc3c(C#N)cccc3C(=O)N(C)C[C@H](C)C(=O)N(C)C[C@@H]1O2
  A = .; B = .; C = .; D = -3; E = .; F = .
C=CCSc1nn2c(=O)c3ccccc3nc2s1
  A = .; B = -8; C = -65; D = 6; E = 52*; F = 4
C/C(Cl)=C/CSc1nn2c(=O)c3ccccc3nc2s1
  A = ?; B = 3; C = -93; D = .; E = .; F = .
COc1cccc(Nc2nn3c(=O)c4ccccc4nc3s2)c1
  A = 114*; B = -22; C = -122; D = .; E = .; F = 2
Cc1ccccc1Nc1nn2c(=O)c3ccccc3nc2s1
  A = 43; B = -17; C = -47; D = 0; E = 35*; F = 1
O=c1c2ccccc2nc2sc(Nc3ccc(F)cc3)nn12
  A = 51; B = -24; C = -58; D = -6; E = 29; F = -3
Cc1noc(C)c1S(=O)(=O)Nc1ccc2c(c1)C(=O)N([C@@H](C)CO)C[C@H](C)[C@H](CN(C)S(=O)(=O)c1ccc(F)cc1)OCCCC[C@H](C)O2
  A = .; B = 26; C = .; D = -16; E = .; F = 1[16.7 µM]
CCCc1noc(-c2cccc([N+](=O)[O-])c2)n1
  A = 20; B = .; C = -28; D = 1; E = 0; F = .
CCCc1noc(-c2ccc(-c3ccccc3)cc2)n1
  A = .; B = .; C = -101; D = -5; E = 39*; F = -5
CC(=O)c1cccc(Nc2ccc(-c3ccccc3F)nn2)c1
  A = 72; B = .; C = -66; D = -17; E = 10; F = .
CC(=O)c1ccc(Nc2ccc(-c3ccccc3C)nn2)cc1
  A = 85*; B = .; C = -79; D = -5; E = 39*; F = -5
CC(CCc1ccccc1)NC(=O)c1ccc(C(=O)NC(C)CCc2ccccc2)cc1 (stereo not given)
  A = -74; B = -21; C = 74*; D = 5; E = -8; F = 0
Cc1noc(C)c1S(=O)(=O)Nc1ccc2c(c1)C(=O)N([C@H](C)CO)C[C@@H](C)[C@H](CN(C)Cc1ccc(Cl)c(Cl)c1)OCCCC[C@@H](C)O2
  A = .; B = 8; C = .; D = -5; E = .; F = -11[16.7 µM]
O=C(N/N=C/c1cccnc1)c1cccc(NC(=O)c2cccc(Br)c2)c1
  A = 6; B = -14; C = -6; D = .; E = 4; F = -4
O=C(N/N=C\c1cc(Br)ccc1O)c1ccc(S(=O)(=O)N2CCCCC2)cc1
  A = -72; B = .; C = 74*; D = .; E = 0; F = .

# Screens (PubChem)
